According to patent publication US8741916B2, “1,3,8-trisubstituted-1,3,8-triaza-spiro[4.5]decan-4-one derivatives as ligands of the ORL-1 receptor” (dated 2014):
pKi: −log10 of the molar value.

Sequences of proteins named here, by UniProt entry; tags and fusion partners are left off. A change or cut given only in a name is not applied to a line headed by its entry.
UniProt P33535: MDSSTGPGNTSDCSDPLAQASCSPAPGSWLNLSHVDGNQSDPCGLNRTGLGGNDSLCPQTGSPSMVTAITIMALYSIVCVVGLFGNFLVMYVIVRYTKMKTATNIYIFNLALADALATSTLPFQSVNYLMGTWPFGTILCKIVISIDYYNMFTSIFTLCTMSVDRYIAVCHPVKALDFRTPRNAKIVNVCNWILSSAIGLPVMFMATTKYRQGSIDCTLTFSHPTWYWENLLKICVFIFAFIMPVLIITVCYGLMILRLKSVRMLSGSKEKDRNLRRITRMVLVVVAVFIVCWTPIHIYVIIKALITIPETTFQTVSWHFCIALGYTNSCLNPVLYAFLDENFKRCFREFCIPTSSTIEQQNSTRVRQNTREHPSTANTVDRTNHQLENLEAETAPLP
UniProt P41146: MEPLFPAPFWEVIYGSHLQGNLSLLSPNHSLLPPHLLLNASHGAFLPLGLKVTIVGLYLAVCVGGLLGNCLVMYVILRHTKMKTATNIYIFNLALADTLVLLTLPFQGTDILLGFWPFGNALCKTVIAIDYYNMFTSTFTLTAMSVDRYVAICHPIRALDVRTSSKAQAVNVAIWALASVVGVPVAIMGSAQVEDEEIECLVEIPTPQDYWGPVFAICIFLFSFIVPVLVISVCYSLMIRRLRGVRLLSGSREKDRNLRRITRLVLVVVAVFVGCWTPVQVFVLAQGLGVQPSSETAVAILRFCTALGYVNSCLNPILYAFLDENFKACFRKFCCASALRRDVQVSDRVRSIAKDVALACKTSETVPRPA

Legend:
[1] = target: Mu opioid receptor (Rattus norvegicus, UniProt P33535); assay: Rat brain mu opioid receptor binding ([3H]DAMGO); conditions: read-out: Mu Ki; rat forebrain membranes; mean where tested more than once
[2] = target: recombinant human nociceptin receptor (ORL-1) (Homo sapiens, UniProt P41146); assay: Nociceptin receptor binding assay ([3H]-nociceptin, HEK293 cell membranes); conditions: read-out: ORL1 Ki, mean where tested more than once

Substance	pKi [1]	pKi [2]
8-(R)-Acenaphthen-1-yl-3-[2-(4-dimethylaminomethyl-[1,2,3]triazol-1-yl)-ethyl]-1-(4-fluoro-phenyl)-1,3,8-triaza-spiro[4.5]decan-4-one	8.03	9.52
8-(S)-Acenaphthen-1-yl-3-[2-(4-dimethylaminomethyl-[1,2,3]triazol-1-yl)-ethyl]-1-(4-fluoro-phenyl)-1,3,8-triaza-spiro[4.5]decan-4-one	7.46	9.09
